The target of assay [1] is Prostaglandin G/H synthase 1 (Homo sapiens, UniProt P23219).
Assay [2] concerns the target 3',5'-cyclic-AMP phosphodiesterase 4D (Homo sapiens, UniProt Q08499).
The target of the next assay is P2Y purinoceptor 12 (Homo sapiens, UniProt Q9H244).
In assay [3] the target is Sphingosine 1-phosphate receptor 1 (Homo sapiens, UniProt P21453).

Chains of the proteins cited; added tags and fusions are not shown. Lines headed by an entry give the natural chain unless they say otherwise; changes in a name come on top.
UniProt P23219, whole entry: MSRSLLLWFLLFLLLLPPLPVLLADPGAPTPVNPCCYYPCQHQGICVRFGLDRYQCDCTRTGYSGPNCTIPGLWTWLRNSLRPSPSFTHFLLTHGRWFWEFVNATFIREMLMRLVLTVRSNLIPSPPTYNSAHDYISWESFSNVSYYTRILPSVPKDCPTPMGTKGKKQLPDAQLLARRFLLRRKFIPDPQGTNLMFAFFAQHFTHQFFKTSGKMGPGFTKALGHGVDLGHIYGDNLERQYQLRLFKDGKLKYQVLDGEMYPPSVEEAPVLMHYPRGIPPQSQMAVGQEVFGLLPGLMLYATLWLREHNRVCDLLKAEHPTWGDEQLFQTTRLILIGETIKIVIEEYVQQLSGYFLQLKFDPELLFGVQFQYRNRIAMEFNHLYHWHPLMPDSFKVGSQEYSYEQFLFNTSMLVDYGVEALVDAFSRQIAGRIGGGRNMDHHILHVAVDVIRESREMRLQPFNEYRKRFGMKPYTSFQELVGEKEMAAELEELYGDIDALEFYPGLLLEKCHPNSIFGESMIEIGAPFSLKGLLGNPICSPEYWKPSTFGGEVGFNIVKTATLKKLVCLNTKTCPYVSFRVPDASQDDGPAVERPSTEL
UniProt Q08499: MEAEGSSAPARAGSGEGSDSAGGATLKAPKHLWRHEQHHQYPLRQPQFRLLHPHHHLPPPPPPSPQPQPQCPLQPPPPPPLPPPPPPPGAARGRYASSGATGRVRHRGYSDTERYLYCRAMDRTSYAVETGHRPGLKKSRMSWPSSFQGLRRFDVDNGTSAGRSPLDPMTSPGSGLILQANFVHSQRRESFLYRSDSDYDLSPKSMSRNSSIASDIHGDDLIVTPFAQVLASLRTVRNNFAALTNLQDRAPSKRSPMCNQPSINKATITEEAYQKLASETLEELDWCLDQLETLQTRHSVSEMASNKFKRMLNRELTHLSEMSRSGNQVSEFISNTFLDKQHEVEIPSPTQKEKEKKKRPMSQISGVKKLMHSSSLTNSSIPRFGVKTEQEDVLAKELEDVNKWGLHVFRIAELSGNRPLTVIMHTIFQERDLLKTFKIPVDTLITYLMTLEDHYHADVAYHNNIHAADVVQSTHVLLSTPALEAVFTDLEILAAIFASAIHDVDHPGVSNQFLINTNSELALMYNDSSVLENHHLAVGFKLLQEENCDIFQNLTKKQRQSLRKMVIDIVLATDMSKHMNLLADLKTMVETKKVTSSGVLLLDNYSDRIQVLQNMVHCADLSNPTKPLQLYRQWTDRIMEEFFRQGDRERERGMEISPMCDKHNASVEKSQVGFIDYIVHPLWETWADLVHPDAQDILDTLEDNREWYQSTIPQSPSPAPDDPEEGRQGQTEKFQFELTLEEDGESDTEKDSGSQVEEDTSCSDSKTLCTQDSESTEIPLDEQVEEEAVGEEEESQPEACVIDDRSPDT
UniProt Q9H244: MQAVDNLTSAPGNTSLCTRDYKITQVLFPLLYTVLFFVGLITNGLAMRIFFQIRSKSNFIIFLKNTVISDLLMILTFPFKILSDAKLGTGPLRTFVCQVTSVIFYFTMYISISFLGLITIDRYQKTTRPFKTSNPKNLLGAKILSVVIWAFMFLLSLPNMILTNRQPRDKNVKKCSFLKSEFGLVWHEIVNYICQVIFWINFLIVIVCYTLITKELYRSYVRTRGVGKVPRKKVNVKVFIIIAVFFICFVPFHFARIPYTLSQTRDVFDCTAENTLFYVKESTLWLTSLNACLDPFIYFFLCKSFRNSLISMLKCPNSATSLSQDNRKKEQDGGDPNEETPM
UniProt P21453, whole entry: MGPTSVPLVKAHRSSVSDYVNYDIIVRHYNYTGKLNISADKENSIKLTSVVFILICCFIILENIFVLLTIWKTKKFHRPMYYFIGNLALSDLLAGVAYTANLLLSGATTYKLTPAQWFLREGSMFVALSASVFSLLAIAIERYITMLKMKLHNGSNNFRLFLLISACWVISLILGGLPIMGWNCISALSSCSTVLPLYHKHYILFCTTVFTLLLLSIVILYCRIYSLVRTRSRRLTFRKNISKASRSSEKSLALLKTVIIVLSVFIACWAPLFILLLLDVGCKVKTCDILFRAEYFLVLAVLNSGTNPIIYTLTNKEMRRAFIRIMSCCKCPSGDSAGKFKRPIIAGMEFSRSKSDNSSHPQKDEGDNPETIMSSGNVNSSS

The structures appear in SMILES notation.

Our source for the IC50 values is ChEMBL document CHEMBL5150013, “The Repertoire of Small-Molecule PET Probes for Neuroinflammation Imaging: Challenges and Opportunities beyond TSPO” (J Med Chem, 2021).

A word on the IC50: it is the concentration at which inhibition is half-maximal. Lower therefore signals higher potency. With `COc1ccc(-c2nc(O[11CH3])nn2-c2ccc(OC)cc2)cc1`, inhibition in assay [1] was half-maximal at 5 nM (IC50).

`[11CH3]Oc1ccc(Cc2ccncc2)nc1-c1cccc([N+](=O)[O-])c1` had an IC50 in assay [2] of 2.8 nM.

Consider `[11CH3]Oc1ccc(Cc2ccncc2)nc1-c1cccc(Cl)c1`, for which it took 5.12 nM to reach half-maximal inhibition in assay [2] (IC50).

In turn, `CCOC(=O)c1cc(C#N)c(N2CC(N[11C](=O)NS(=O)(=O)c3ccc(Cl)s3)C2)nc1C` came in with an IC50 at P2Y purinoceptor 12 of 6 nM.

`CCCCCCCCc1ccc(CCC(N)(CO)CO)cc1` [FINGOLIMOD] showed an IC50 in assay [3] of 604 nM.

Take `COc1ccc(-n2nc(OCC(F)(F)F)nc2-c2ccc(O[11CH3])cc2)cc1`: half-maximal inhibition in assay [1] (IC50) was put at 1 nM.
